Data taken from patent publication US20030215458A1 (published 2003).

By UniProt entry, the sequences of proteins in these tests, tags left out. Residues count along the entry.
UniProt P01887, 21-119: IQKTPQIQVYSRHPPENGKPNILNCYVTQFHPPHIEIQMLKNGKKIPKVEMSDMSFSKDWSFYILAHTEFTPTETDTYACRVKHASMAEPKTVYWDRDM

Experiments:
[1] = target: T1, mouse B6 class I antigens (D^b or K^b molecules on the surface of RMA-S cells) (mouse, UniProt P01887 21-119); test: RMA-S cells incubated with peptide (25 ug/ml), stained with FITC anti-D^b or anti-K^b, flow cytometry
[2] = target: T1, mouse B6 class I antigens (D^b or K^b …); test: binding of 9-mer peptides within p117-139 to mouse B6 (H-2^b) class I; RMA-S cell assay, flow cytometry

B1: WT1 peptide p126-134 (RMFPNAPYL) (peptide)
peptide: RMFPNAPYL
With B1 the “Binding Affinity to Mouse MHC Class I (% increase of D^b or K^b on RMA-S cells)” value [1] was 0.9% and the “Binding Affinity to Mouse MHC Class I (%)” value [2] was 79%.
